This note sets out measurements from patent US9624268B2, “Oral peptide inhibitors of interleukin-23 receptor and their use to treat inflammatory bowel diseases” (Protagonist Therapeutics, Inc., priority 2014, dated 2017).

Where only a bound is given, the exact number is not on record here.

In this test the target is T1, Rat IL-23R (Rattus norvegicus, UniProt F1LX96).
T1 sequence (F1LX96 1-639): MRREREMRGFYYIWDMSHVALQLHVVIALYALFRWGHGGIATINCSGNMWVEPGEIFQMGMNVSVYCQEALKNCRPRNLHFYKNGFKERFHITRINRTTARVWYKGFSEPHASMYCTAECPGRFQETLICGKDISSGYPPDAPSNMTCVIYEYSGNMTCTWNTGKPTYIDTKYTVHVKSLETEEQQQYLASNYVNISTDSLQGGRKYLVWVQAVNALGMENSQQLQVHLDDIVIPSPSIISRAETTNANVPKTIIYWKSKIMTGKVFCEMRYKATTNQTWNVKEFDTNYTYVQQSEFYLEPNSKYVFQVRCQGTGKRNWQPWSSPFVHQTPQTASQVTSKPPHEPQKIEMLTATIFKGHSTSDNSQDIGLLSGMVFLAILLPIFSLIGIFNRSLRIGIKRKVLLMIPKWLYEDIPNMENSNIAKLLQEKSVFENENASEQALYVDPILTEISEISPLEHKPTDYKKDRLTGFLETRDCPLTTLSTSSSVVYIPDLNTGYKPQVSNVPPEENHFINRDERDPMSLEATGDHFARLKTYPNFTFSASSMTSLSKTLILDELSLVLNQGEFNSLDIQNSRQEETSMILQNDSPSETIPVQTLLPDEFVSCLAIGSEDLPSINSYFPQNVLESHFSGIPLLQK
In words: Rat IL-23R Competitive Binding ELISA (Rat ELISA). As to conditions: Table 5B thioethers. In general terms: In an ELISA, binding on a coated surface is turned into a signal by an enzyme label.
Consider `COc1ccc(C[C@H](NC(=O)[C@@H]2CSCC[C@H](NC(C)=O)C(=O)N[C@@H](CCC(N)=O)C(=O)N[C@@H]([C@@H](C)O)C(=O)N[C@@H](Cc3c[nH]c4ccccc34)C(=O)N[C@@H](CCC(N)=O)C(=O)N2)C(=O)N[C@@H](Cc2ccc(O)c(C(C)(C)C)c2)C(=O)N[C@@](C)(CCCCN)C(=O)N[C@@H](CCC(=O)O)C(=O)N[C@@H](CC(N)=O)C(=O)NCC(N)=O)cc1` [compound 725], for which the half-maximal inhibitory concentration (IC50) (usually the concentration at which inhibition is half-maximal) lay within 100 to 1000 nM.

The compound `COc1ccc(C[C@H](NC(=O)[C@@H]2CSCC[C@H](NC(C)=O)C(=O)N[C@@H](CCC(N)=O)C(=O)N[C@@H]([C@@H](C)O)C(=O)N[C@@H](Cc3c[nH]c4ccccc34)C(=O)N[C@@H](CCC(N)=O)C(=O)N2)C(=O)N[C@@H](Cc2ccc3ccccc3c2)C(=O)N[C@@](C)(CCCCN)C(=O)N[C@@H](CCCCNC(C)=O)C(=O)N[C@@H](CC(N)=O)C(=O)N[C@@H](CO)C(N)=O)cc1` [compound 808] returned an IC50 of 10 to 25 nM.

In turn, `COc1ccc(C[C@H](NC(=O)[C@@H]2CSCC[C@H](NC(C)=O)C(=O)N[C@@H](CCC(N)=O)C(=O)N[C@@H]([C@@H](C)O)C(=O)N[C@@H](Cc3c[nH]c4ccccc34)C(=O)N[C@@H](CCC(N)=O)C(=O)N2)C(=O)N[C@@H](Cc2ccc3ccccc3c2)C(=O)N[C@@](C)(CCCCN)C(=O)N[C@@H](CCCCNC(C)=O)C(=O)N[C@@H](CC(N)=O)C(=O)N[C@@H](C)C(N)=O)cc1` [compound 809] came in with an IC50 of 10 to 25 nM.

Regarding `COc1ccc(C[C@H](NC(=O)[C@@H]2CSCC[C@H](NC(C)=O)C(=O)N[C@@H](CC(N)=O)C(=O)N[C@@H]([C@@H](C)O)C(=O)N[C@@H](Cc3c[nH]c4ccccc34)C(=O)N[C@@H](CCC(N)=O)C(=O)N2)C(=O)N[C@@H](Cc2ccc3ccccc3c2)C(=O)N[C@@](C)(CCCCN)C(=O)N[C@@H](CCCCNC(C)=O)C(=O)N[C@@H](CC(N)=O)C(=O)NCC(N)=O)cc1` [compound 817], the IC50 is 25 to 100 nM.

`COc1ccc(C[C@H](NC(=O)[C@@H]2CSCC[C@H](NC(C)=O)C(=O)N[C@@H](CCC(N)=O)C(=O)N[C@@H]([C@@H](C)O)C(=O)N[C@@H](Cc3c[nH]c4ccccc34)C(=O)N[C@@H](CCC(N)=O)C(=O)N2)C(=O)N[C@@H](Cc2ccc3ccccc3c2)C(=O)N[C@@](C)(CCCCN)C(=O)N[C@@H](CCCCNC(C)=O)C(=O)N[C@@H](CC(N)=O)C(=O)N[C@@H](C)C(=O)N[C@@H](CCC(=O)O)C(N)=O)cc1` [compound 825]: the IC50 lay within 10 to 25 nM.

Compound `CC(=O)N[C@H]1CCSC[C@@H](C(=O)N[C@@H](Cc2ccc(OCCN)cc2)C(=O)N[C@@H](Cc2ccc3ccccc3c2)C(=O)N[C@@](C)(CCCCN)C(=O)N[C@@H](CC(=O)O)C(=O)N[C@@H](CC(N)=O)C(=O)NCC(N)=O)NC(=O)[C@H](CCC(N)=O)NC(=O)[C@H](Cc2c[nH]c3ccccc23)NC(=O)[C@H]([C@@H](C)O)NC(=O)[C@H](CCC(N)=O)NC1=O` [compound 855] gave an IC50 of 10 to 25 nM.

As to `CC(=O)N[C@H]1CCSC[C@@H](C(=O)N[C@@H](Cc2ccc(OCCN)cc2)C(=O)N[C@@H](Cc2ccc3ccccc3c2)C(=O)N[C@@](C)(CC(C)C)C(=O)N[C@@H](CCC(=O)O)C(=O)N[C@@H](CC(N)=O)C(=O)N[C@@H](CC(N)=O)C(N)=O)NC(=O)[C@H](CCC(N)=O)NC(=O)[C@H](Cc2c[nH]c3ccccc23)NC(=O)[C@H]([C@@H](C)O)NC(=O)[C@H](CCC(N)=O)NC1=O` [compound 951], the IC50 was less than 10 nM.

Regarding `CC(=O)N[C@H](CCCNC(=N)N)C(=O)N[C@H]1CCSC[C@@H](C(=O)N[C@@H](Cc2ccc(OCCN)cc2)C(=O)N[C@@H](Cc2ccc3ccccc3c2)C(=O)N[C@@](C)(CCCCN)C(=O)N[C@@H](CCC(=O)O)C(=O)N[C@@H](CC(N)=O)C(=O)N[C@@H](CC(N)=O)C(N)=O)NC(=O)[C@H](CCC(N)=O)NC(=O)[C@H](Cc2c[nH]c3ccccc23)NC(=O)[C@H]([C@@H](C)O)NC(=O)[C@H](CCC(N)=O)NC1=O` [compound 968], the IC50 was less than 10 nM.

Compound `CC(=O)N[C@@H](Cc1ccc2ccccc2c1)C(=O)N[C@H]1CCSC[C@@H](C(=O)N[C@@H](Cc2ccc(OCCN)cc2)C(=O)N[C@@H](Cc2ccc3ccccc3c2)C(=O)N[C@@](C)(CCCCN)C(=O)N[C@@H](CCC(=O)O)C(=O)N[C@@H](CC(N)=O)C(=O)N[C@@H](CC(N)=O)C(N)=O)NC(=O)[C@H](CCC(N)=O)NC(=O)[C@H](Cc2c[nH]c3ccccc23)NC(=O)[C@H]([C@@H](C)O)NC(=O)[C@H](CCC(N)=O)NC1=O` [compound 971] came in with an IC50 of 10 to 25 nM.

Regarding `CC(=O)N[C@H](CCC(N)=O)C(=O)N[C@H]1CCSC[C@@H](C(=O)N[C@@H](Cc2ccc(OCCN)cc2)C(=O)N[C@@H](Cc2ccc3ccccc3c2)C(=O)N[C@@](C)(CCCCN)C(=O)N[C@@H](CCC(=O)O)C(=O)N[C@@H](CC(N)=O)C(=O)N[C@@H](CC(N)=O)C(N)=O)NC(=O)[C@H](CCC(N)=O)NC(=O)[C@H](Cc2c[nH]c3ccccc23)NC(=O)[C@H]([C@@H](C)O)NC(=O)[C@H](CCC(N)=O)NC1=O` [compound 974], the IC50 is less than 10 nM.
